Chains of the proteins cited; added tags and fusions are not shown. Lines headed by an entry give the natural chain unless they say otherwise; changes in a name come on top.
UniProt Q15475: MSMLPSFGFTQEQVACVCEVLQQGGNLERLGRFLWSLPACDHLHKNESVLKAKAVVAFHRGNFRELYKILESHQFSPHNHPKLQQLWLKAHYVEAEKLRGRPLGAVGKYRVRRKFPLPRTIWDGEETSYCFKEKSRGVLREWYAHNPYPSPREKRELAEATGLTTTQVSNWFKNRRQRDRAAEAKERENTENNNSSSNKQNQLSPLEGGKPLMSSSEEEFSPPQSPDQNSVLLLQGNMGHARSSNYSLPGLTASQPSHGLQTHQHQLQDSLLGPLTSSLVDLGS
UniProt O00167: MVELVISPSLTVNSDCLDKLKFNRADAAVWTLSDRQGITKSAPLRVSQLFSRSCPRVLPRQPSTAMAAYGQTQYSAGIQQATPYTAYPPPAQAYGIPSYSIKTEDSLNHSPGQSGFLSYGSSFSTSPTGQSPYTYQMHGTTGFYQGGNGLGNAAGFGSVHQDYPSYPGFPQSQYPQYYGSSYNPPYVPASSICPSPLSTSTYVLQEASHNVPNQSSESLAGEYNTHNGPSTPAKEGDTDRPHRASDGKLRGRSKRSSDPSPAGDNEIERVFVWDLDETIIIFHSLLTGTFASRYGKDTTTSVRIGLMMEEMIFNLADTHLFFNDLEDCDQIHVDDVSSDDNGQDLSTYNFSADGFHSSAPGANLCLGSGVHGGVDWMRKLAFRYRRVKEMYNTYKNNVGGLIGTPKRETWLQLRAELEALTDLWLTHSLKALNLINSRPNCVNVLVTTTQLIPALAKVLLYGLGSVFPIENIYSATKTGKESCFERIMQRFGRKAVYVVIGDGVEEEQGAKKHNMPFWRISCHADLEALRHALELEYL

The whole screen tested about 360,000 compounds, of which about 2,000 (0.56%) were called active. The source calls these results inconclusive, neither active nor inactive. No stated cut-off is given here; in the data, active means activity change below about -65%; inconclusive means mostly about -30% to -63%; inactive means weaker than that.
These compounds were tested against Homeobox protein SIX1 (Homo sapiens) + Protein phosphatase EYA2 (Homo sapiens) (UniProt Q15475+O00167) (assay: qHTS Assay for Inhibitors of the Six1/Eya2 Interaction). Settings: AlphaScreen GST-Six1/His-Eya2 binding, biochemical; hits give low values.
From the text: Its expression is low or undetectable in normal adult breast tissue but the gene is over-expressed in 50% of primary breast tumors and 90% of metastatic lesions. […] Similar to Six1, Eya2 is also not expressed in most normal adult tissues, but is reexpressed in cancers. The Six1-Eya interaction is essential for proliferation during embryonic development, and both Six1 and Eya2 have been independently implicated in the same types of cancer. Because Six1 and Eya2 are embryonic genes with little expression in adult tissues, inhibitors of their expression/activity are likely to have limited side effects. Our goal is to identify inhibitors of the Six1/Eya interaction for potential cancer therapy. To this end, we have developed a homogenous AlphaScreen assay targeting the Six1/Eya interaction. We performed a large scale HTS of the Molecular Libraries Small Molecule Repository (MLSMR) to identify inhibitors of the Six1/Eya interaction as potential anti-cancer therapeutics. Compounds identified can also be used as chemical probes to better understand the biological functions of Six1 and Eya. NIH Chemical Genomics Center [NCGC] NIH Molecular Libraries Probe Centers Network [MLPCN] MLPCN Grant: DA033147 Assay Submitter (PI): Rui Zhao, University of Colorado Denver
The first step of the 5 uL AlphaScreen assay is to dispense assay buffer (50 mM Tris, pH 8.0, 300 mM NaCl, 0.05% BSA, 0.02% Tween 20, 1 mM TCEP) into a Greiner 1536 white solid bottom microtiter plate (789175-F). Five microliters is added to Column 1, 4 uL is added to Column 2 and 3 uL is added to Columns 3 through 48. A 5X protein solution (250 nM GST-Six1 protein + 500 nM His-tagged Eya2 protein) is mixed and 1 uL is dispensed to Columns 3-48. Using a 1536 pintool, 23 nL of compound is transferred to the assay plate. A solution of 5X AlphaScreen beads is mixed (50 ug/mL Glutathione linked donor beads + Nickel chelated acceptor beads) and 1 uL is dispensed to Columns 2-48. The assay plate is incubated for one hour, with a lid, at 37 deg C in the dark. The plate is read using a Perkin Elmer Envision using an AlphaScreen protocol.
With `Nc1ccc(CCCCOc2ccccc2)cc1` the activity change was inconclusive: -33%.
With `C[N+]1=C2C=CC=CC=C2SC12C([N+](=O)[O-])=CC([N+](=O)[O-])=C[C-]2[N+](=O)[O-]` (stereo unspecified) the activity change was inconclusive: -62%.
With `O=[N+]([O-])c1cc([N+](=O)[O-])c(CCNc2ccccc2)c([N+](=O)[O-])c1` the activity change was inconclusive: -55.6%.
With `CSc1ccc(Nc2c([N+](=O)[O-])cc([N+](=O)[O-])cc2[N+](=O)[O-])cc1` the activity change was inconclusive: -52.9%.
With `CS(=O)(=O)c1cc([N+](=O)[O-])c2no[n+]([O-])c2c1` the activity change was inconclusive: -44.9%.
For `Cc1ccc(NCCc2c([N+](=O)[O-])cc([N+](=O)[O-])cc2[N+](=O)[O-])cc1`, the activity change was inconclusive: -49.3%.

— PubChem BioAssay AID651725 (National Center for Advancing Translational Sciences (NCATS), 2012)
On the % scale 0 is the no-effect control and ±100 the full control effect.
